Apparent affinities of Ab-14 variants for a coronavirus HR2 peptide

Reference: Li et al. 2023, doi:10.1038/s41467-023-39022-2. File: FLAb, binding data.

Antigen: PDVDLGDISGINAS, a 14-residue peptide of the SARS-CoV-2 spike HR2 region.

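The starting antibody came from a phage panning campaign against this peptide. The variants were designed computationally from a first round of random CDR variants and then made and measured. Their group label is 14L_Ctrl (Ctrl: baseline library sampled from a position-specific scoring matrix, with some repeated check sequences). Affinity was read by AlphaSeq, a pooled yeast mating assay with surface-displayed partners. Binding brings cells together so that they mate, and sequencing counts the barcode pairs among the diploids. The ratio of observed to expected reads was calibrated, replicate by replicate, on BCL2-family standards whose Kd was known from biolayer interferometry. The assay was run in six technical replicates.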

The variants keep the heavy chain, the linker and the frameworks of Ab-14 (scFv order VH, a 15-residue (Gly4Ser)3 linker, VL).
VH: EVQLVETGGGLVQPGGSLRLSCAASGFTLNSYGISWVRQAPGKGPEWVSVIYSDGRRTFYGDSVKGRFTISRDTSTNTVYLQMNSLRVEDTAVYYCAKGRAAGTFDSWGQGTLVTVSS
VL: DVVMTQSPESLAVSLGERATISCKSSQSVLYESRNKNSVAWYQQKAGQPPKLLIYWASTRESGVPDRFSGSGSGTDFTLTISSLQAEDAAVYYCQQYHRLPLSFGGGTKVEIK

The parent's light chain CDRs are KSSQSVLYESRNKNSVA, WASTRES, QQYHRLPLS; each variant's own CDRs replace them letter for letter. Scale: log10 of Kd in nM, estimated from mating counts; low values are strong binders. Where no diploid with the target was found in that replicate, the entry reads "nd": below detection, most likely a poor binder, though not proof of it. Of ten entries with the parent sequence, four were seen in most replicates (averages 0.34 to 2.37), three in one and three in none, so single entries are noisy. The range of this assay differs from that of the first round, and the authors advise against merging the two. As a blank, each scFv also met three strains without target: over all light chain designs, 4% of these pairings were detected, typically at 2.64 and seldom below 1.59. For each scFv, signals with the empty controls are counted beside the result. The authors averaged sequences with at least three values out of six and counted those with two or fewer as poor binders.

The variant KSSQSVLYEWRNKNSVA, EASTREP, QQYHRLPLS showed 0.63, 0.39, 0.46, 0.33, 0.48, 0.80 (controls 0 of 18).
The variant KSSQSVDYESRNKNSVA, WASTRES, QQYHRLPLS showed 3.69, 2.09, 1.26, 1.84, 1.95, 2.97 (controls 0 of 18).
The variant KSSQGVLYESRNKNSVA, AASTLEP, QQYHRLPLS showed 0.84, 0.61, 0.64, 0.23, 0.15, 0.94 (controls 0 of 18).
The variant KSSQSVLEESRNKNSVA, HASTRES, QTYHRLPLS showed 0.86, 1.21, 0.59, 1.08, 0.93, 0.73 (controls 3 of 18).
The variant KISQSVGYESRNLNSVA, WLSTRES, QQYHPLPLS showed nd, nd, nd, nd, nd, nd (controls 0 of 18).
The variant KSSQIVLYESRNKNSVA, WAYTRES, QQYHRLPLS showed nd, nd, nd, nd, nd, nd (controls 0 of 18).
The variant KSSQSVLYESSNKNSVA, WASTREE, QQYVRLPLS showed 1.77, 1.32, 1.34, 1.14, 1.59, 1.20 (controls 1 of 18).
The variant KSSQSVLYEPNNKNSVA, WASTRES, QQYHRLPLS showed 1.05, 1.70, 1.43, 1.14, 1.57, 1.22 (controls 3 of 18).
The variant KSSQSVLYESRNGNSVA, MASTRWS, QQYHRLPLS showed 1.70, 1.48, 1.58, 1.57, 1.64, 1.82 (controls 1 of 18).
The variant KSSQSLLYESRNKNSVA, WASTRES, QQYHGLPLS showed nd, nd, nd, nd, nd, 2.07 (controls 2 of 18).
The variant KSSQKVNYESWDHNSVA, WASMRES, QQYHRLPLS showed 1.94, 2.30, 1.90, 1.54, 1.46, 1.73 (controls 2 of 18).
The variant KSSQSVLYEDRNKQSVA, WASTRES, QQYHRLPLS showed 2.34, 1.37, 1.66, 1.78, 2.20, 2.57 (controls 2 of 18).
The variant KVSQSGPYDSRNKNAVA, SASTRES, QQYHRLPLS showed -0.03, -0.06, -0.26, -0.48, -0.03, 0.03 (controls 2 of 18).
The variant KIMQSVLYESRNKNSVA, WASTRES, QQYWREPLS showed nd, nd, nd, nd, nd, nd (controls 0 of 18).
The variant KSSQSVLPESDNKNSVA, GASTRES, QQYHRLPLS showed 3.58, 0.95, 0.10, nd, 3.73, 1.42 (controls 0 of 18).
The variant KSSQSVLYEVRNKNSVA, WASTRES, QQYHRLPLS showed nd, nd, nd, nd, nd, nd (controls 0 of 18).
The variant KSSPSVGYESRNKASVA, WASTRES, QQYHILPLK showed 2.58, nd, nd, nd, 3.32, 2.18 (controls 2 of 18).
The variant KMSQSVLMESRNKNSVA, WASTRES, QQYHRLPLS showed 0.13, 0.03, 0.10, 0.09, 0.19, 0.27 (controls 0 of 18).
The variant KRQQSVTYESRNKNSVA, WASTRES, QQYHRLPLS showed nd, nd, nd, nd, nd, nd (controls 0 of 18).
The variant KSSPSYLYNSRNKNSVA, NASTRES, QQYHRLPLS showed 0.22, 0.14, -0.12, 0.34, 0.05, 0.38 (controls 0 of 18).
The variant KWSQSTLYESRNCNSVA, DASTRES, KQYHRLPLS showed 0.50, 0.96, 0.34, 0.21, 0.26, 0.43 (controls 0 of 18).
The variant KSSQSVLYESRNKNSVA, WASTRES, VEEHRAPLS showed nd, nd, nd, nd, nd, nd (controls 0 of 18).
The variant KSSQSVLDESRNKNSVA, WASTREE, VQYHHYPLS showed 1.12, nd, 1.18, 1.20, 0.41, 0.51 (controls 0 of 18).
The variant KMSQSVLYESRNNNSVA, DASTRES, QQYYRLPLS showed 0.89, 0.69, 0.51, 0.24, 0.55, 0.66 (controls 0 of 18).
The variant KSSQSVLYESRNKNSVA, QASTRES, QQYHRLTLS showed 1.40, 0.61, 2.07, 1.16, 1.56, 1.54 (controls 0 of 18).
The variant KSSQSVLMESRNKNSVA, WAATREN, QQYHRLPLA showed nd, nd, nd, nd, nd, nd (controls 0 of 18).
The variant KSSQSVLYESRNKNSLA, WASTRES, QQYHRLPLS showed 0.84, 1.51, 0.84, 0.72, 0.53, 0.43 (controls 0 of 18).
The variant KMSQSKLYESRNKNSVA, WASTRES, QQVHWYPLS showed nd, nd, nd, nd, nd, nd (controls 1 of 18).
The variant QSSQSVLYESRNKNSVA, QASTRES, QQYHRLPLS showed 0.72, 1.16, 1.11, nd, 0.49, 1.15 (controls 1 of 18).
The variant KTQQSLLSESNNKNNVA, WASTRES, QRYHRLPLS showed 1.67, 0.85, 0.84, 1.07, 1.37, 0.98 (controls 0 of 18).
The variant KSSQSVEMESRNKNSVA, WASTRES, QSYHRLHLS showed nd, nd, nd, nd, nd, nd (controls 0 of 18).
The variant KSSQSVLYESRNKNSVA, WAYTRES, QQPHRLPLS showed nd, nd, nd, nd, nd, nd (controls 0 of 18).
The variant KSSQSVLYESRNKNSVA, WASTRES, QSYHRLPLI showed nd, 2.51, 3.43, nd, nd, nd (controls 0 of 18).

The 4 strongest on average among those seen in every replicate, once more:

| CDR-L1 | CDR-L2 | CDR-L3 | replicates, log10 nM | signal with controls |
|---|---|---|---|---|
| KVSQSGPYDSRNKNAVA | SASTRES | QQYHRLPLS | -0.03, -0.06, -0.26, -0.48, -0.03, 0.03 | 2/18 |
| KMSQSVLMESRNKNSVA | WASTRES | QQYHRLPLS | 0.13, 0.03, 0.10, 0.09, 0.19, 0.27 | 0/18 |
| KSSPSYLYNSRNKNSVA | NASTRES | QQYHRLPLS | 0.22, 0.14, -0.12, 0.34, 0.05, 0.38 | 0/18 |
| KWSQSTLYESRNCNSVA | DASTRES | KQYHRLPLS | 0.50, 0.96, 0.34, 0.21, 0.26, 0.43 | 0/18 |